In patent publication US11058775B2, “Insulin dimer-incretin conjugates” (Merck Sharp & Dohme Corp., priority 2016, dated 2021) one finds GCGR/GLP1R ratio data, which are given here for one molecule.

Chains of the proteins cited; added tags and fusions are not shown. Residues count along the entry.
UniProt P47871, 26-477: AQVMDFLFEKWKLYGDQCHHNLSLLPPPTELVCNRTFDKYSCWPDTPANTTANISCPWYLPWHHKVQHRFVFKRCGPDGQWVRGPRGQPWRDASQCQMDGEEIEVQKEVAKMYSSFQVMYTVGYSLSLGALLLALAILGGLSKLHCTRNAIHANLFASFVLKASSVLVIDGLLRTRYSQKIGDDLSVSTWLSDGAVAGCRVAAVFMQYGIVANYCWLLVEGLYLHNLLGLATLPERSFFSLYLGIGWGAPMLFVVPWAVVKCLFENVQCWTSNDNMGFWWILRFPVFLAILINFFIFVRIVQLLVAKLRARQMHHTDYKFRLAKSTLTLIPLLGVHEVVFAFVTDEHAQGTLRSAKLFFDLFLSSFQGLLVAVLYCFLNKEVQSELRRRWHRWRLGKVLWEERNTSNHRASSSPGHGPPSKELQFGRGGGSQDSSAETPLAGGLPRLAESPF

The structures appear in SMILES notation.

For this experiment, the target named is T1, human GCGR (Homo sapiens, UniProt P47871).
T1 construct: expressed in transfected cells; grown under Blasticidin and Hygromycin selection
Kind of experiment: cAMP activity assay, cells expressing human GCGR. In kind it is cell-based. To be noted: ratio of hGCGR EC50 to hGLP1R EC50, Table 7.

For the molecule `CC(C)C[C@H](NC(=O)[C@H](Cc1ccc(O)cc1)NC(=O)[C@H](CCCCN)NC(=O)[C@H](CO)NC(=O)[C@H](Cc1ccc(O)cc1)NC(=O)[C@H](CC(=O)O)NC(=O)[C@H](CO)NC(=O)[C@@H](NC(=O)[C@H](Cc1ccccc1)NC(=O)[C@@H](NC(=O)CNC(=O)[C@H](CCC(N)=O)NC(=O)[C@@H](CO)NC(=O)[C@@H](N)Cc1c[nH]cn1)[C@@H](C)O)[C@@H](C)O)C(=O)N[C@@H](CC(=O)O)C(=O)N[C@@H](CCC(=O)O)C(=O)N[C@@H](CCCNC(=N)N)C(=O)N[C@@H](C)C(=O)N[C@@H](C)C(=O)N[C@@H](CCC(N)=O)C(=O)N[C@@H](CC(=O)O)C(=O)N[C@@H](Cc1ccccc1)C(=O)N[C@H](C(=O)N[C@@H](CCCCNC(=O)COCCOCCNC(=O)COCCOCCNC(=O)CC[C@H](NC(=O)CCCCCCCCCCCCCCCN=[N+]=[N-])C(=O)O)C(=O)N[C@@H](Cc1c[nH]c2ccccc12)C(=O)N[C@@H](CC(C)C)C(=O)N[C@@H](CC(C)C)C(=O)N[C@@H](CC(=O)O)C(=O)N[C@H](C(N)=O)[C@@H](C)O)C(C)C` [PEP90], the GCGR/GLP1R ratio is recorded as 0.66.
